Experimental data from PubChem BioAssay AID624287 (National Center for Advancing Translational Sciences (NCATS), 2012).
Only a part is listed here, and it is no random draw. Some tests of the compounds listed are not included; inactive here does not mean inactive elsewhere. Results filed as inconclusive are left out. The source made the active and inactive calls. Calls come from the whole dose curve; as a rule, active = well fitted activation curve with a large enough effect; inconclusive = small, poorly fitted or top-dose-only effect, or another doubt; inactive = no such curve, though single readings can be large or run the other way; cell line not stated here.

Experiment: qHTS for Agonist of gsp, the Etiologic Mutation Responsible for Fibrous Dysplasia/McCune-Albright Syndrome: qHTS;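 note: phosphodiesterase inhibitor Ro 20-1724 added with compounds to block cAMP breakdown; nearly all actives have a fitted effect of over 60% in size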
Settings: gsp mutant cells, cAMP HTRF, 30 min; at 76.9 µM (top of the series) unless noted
In the case of `CN(C)C1(CNC(=O)c2ccc(Br)cc2)CCCCC1`, the activation (cAMP increase) is reported as inactive: -16.2% [at 15.4 µM].
In the case of `COc1cc(C(=O)NCC2(N(C)C)CCCCC2)c([N+](=O)[O-])cc1OC`, the activation (cAMP increase) is reported as inactive: -23%.
With `COc1ccc(Cl)cc1C(=O)NCC1(N(C)C)CCCCC1` the activation (cAMP increase) was inactive: -5.32% [at 15.4 µM].
In the case of `COc1cccc(C(=O)NCC2(N3CCCCC3)CCCCC2)c1`, the activation (cAMP increase) is reported as inactive: -2.19% [at 15.4 µM].
For `O=C(NCC1(N2CCCCC2)CCCCC1)c1cccc(Cl)c1`, the activation (cAMP increase) was inactive: 12.6%.
For `O=C(OC1CN2CCC1CC2)C(CO)(c1ccccc1)c1ccccc1` (stereo not given), the activation (cAMP increase) was inactive: -71.7%.
In the case of `C=C(C)C#CC(O)(C(=O)OC1CCN(C)CC1)c1ccccc1` (stereo not given), the activation (cAMP increase) is reported as inactive: -12.3%.
With `COc1ccc(Br)c(C(=O)NCC2(N3CCCCC3)CCCCC2)c1` the activation (cAMP increase) was inactive: -2.39%.
For `O=C(OCCN1CCCC1)C(O)(c1ccccc1)c1ccccc1`, the activation (cAMP increase) was inactive: 23.3% [at 15.4 µM].
With `CC(C)Oc1ccc(C(=O)NCC2(N(C)C)CCCCC2)cc1` the activation (cAMP increase) was inactive: 17.7% [at 15.4 µM].
With `CN(C)c1cccc(C(=O)NCC2(N(C)C)CCCCC2)c1` the activation (cAMP increase) was inactive: -11.6%.
With `O=C(NCC1(N2CCCCC2)CCCCC1)c1cc([N+](=O)[O-])ccc1Cl` the activation (cAMP increase) was inactive: 3.4% [at 15.4 µM].
For `COc1cc(SC)ccc1C(=O)NCC1(N(C)C)CCCCC1`, the activation (cAMP increase) was inactive: -12.8%.
For `CCN(CC)CC(C)C(C)OC(=O)C(O)(c1ccccc1)c1ccccc1` (stereo not given), the activation (cAMP increase) was inactive: -2% [at 15.4 µM].
In the case of `CC(C)N1C(=O)CC2(CCN(CCOC(=O)C(O)(c3ccccc3)c3ccccc3)CC2)C1=O`, the activation (cAMP increase) is reported as inactive: 0.127%.
In the case of `Cc1ccc(C(=O)NCC2(N3CCCCC3)CCCCC2)cc1`, the activation (cAMP increase) is reported as inactive: -11% [at 15.4 µM].
For `CN(C)C1CCCC1OC(=O)C(O)(c1ccccc1)c1ccccc1` (stereo not given), the activation (cAMP increase) was inactive: 11.5%.
For `CN(C)c1ccc(C(=O)NCC2(N(C)C)CCCCC2)cc1`, the activation (cAMP increase) was inactive: 5.87% [at 15.4 µM].
In the case of `Cc1ccccc1C(=O)NCC1(N2CCCCC2)CCCCC1`, the activation (cAMP increase) is reported as inactive: -80%.
In the case of `O=C(NCC1(N2CCCCC2)CCCCC1)c1cc(F)c(F)cc1Cl`, the activation (cAMP increase) is reported as inactive: 19.7% [at 15.4 µM].
In the case of `C=CCN1CCN(CCOC(=O)C(O)(c2ccccc2)c2ccccc2)CC1`, the activation (cAMP increase) is reported as inactive: 4.56%.
In the case of `COc1ccc(C(=O)NCC2(N(C)C)CCCCC2)cc1`, the activation (cAMP increase) is reported as inactive: 5.71%.
In the case of `O=C(NCC1(N2CCCCC2)CCCCC1)c1cccc(Br)c1`, the activation (cAMP increase) is reported as inactive: -1.88%.
With `Cc1cc(C(=O)NCC2(N3CCCCC3)CCCCC2)ccc1[N+](=O)[O-]` the activation (cAMP increase) was inactive: 20%.
With `CCN1CCCC(OC(=O)C2(O)c3ccccc3C=Cc3ccccc32)C1` (stereo not given) the activation (cAMP increase) was inactive: 18.3%.
